## Yeast mating assay B: variants of the scFv Ab-14

Source: Li et al. 2023 (doi:10.1038/s41467-023-39022-2), MIT Lincoln Laboratory and A-Alpha Bio; data file from the FLAb repository.

All variants were tested on one target, the spike HR2 peptide PDVDLGDISGINAS (SARS-CoV-2).

The variants keep the light chain, the linker and the frameworks of Ab-14 (scFv order VH, three GGGGS repeats, VL).
VH: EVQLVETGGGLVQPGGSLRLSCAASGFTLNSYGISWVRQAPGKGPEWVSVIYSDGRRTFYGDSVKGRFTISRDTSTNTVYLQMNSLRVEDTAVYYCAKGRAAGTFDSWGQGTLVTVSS
VL: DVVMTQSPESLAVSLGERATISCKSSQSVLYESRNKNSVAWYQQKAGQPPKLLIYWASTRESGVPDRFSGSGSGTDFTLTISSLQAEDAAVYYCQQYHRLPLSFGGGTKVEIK

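This is the validation round: designs drawn from the data on random variants, tested in the same kind of assay. Their group label is 14H_GP_Gibbs (GP: Gaussian process model; Gibbs: Gibbs sampling; a sequence that several methods proposed may carry one label only). AlphaSeq pools MATa yeast showing the antibodies with MATalpha yeast showing the peptide. Binding brings cells together so that they mate, and sequencing counts the barcode pairs among the diploids. Each replicate has its own calibration line, from reference interactions of the BCL2 family. Mating was done six times.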

The parent's heavy chain CDRs are GFTLNSYGIS, VIYSDGRRTFYGDSVK, GRAAGTFDS; each variant's own CDRs replace them letter for letter. The read-out is the apparent dissociation constant on a log10 scale (nM): the lower, the stronger. Where no diploid with the target was found in that replicate, the entry reads "nd": below detection, most likely a poor binder, though not proof of it. Of ten entries with the parent sequence, four were seen in most replicates (averages 0.34 to 2.37), three in one and three in none, so single entries are noisy.

CDR-H1,CDR-H2,CDR-H3,"replicates, log10 nM",control signals
KFSLNSYGIS,VIYADGRRTFYGDSVK,GRAAGTFDV,1.17 1.31 0.32 0.81 1.07 0.91,0/18
GFSLNEYGIS,VIYSDGRRTFYGDQVK,GQAAGTFDN,0.92 0.38 0.25 0.12 0.38 0.63,0/18
GFELNSYGIS,VIYSDGRRTFYADAVK,GKTAGTFDS,0.42 0.08 0.03 0.04 -0.12 0.30,0/18
GFSLNSYGIS,VIYADGRRTFYGDSVK,GNAAGTFDD,-0.13 0.27 0.03 -0.05 0.04 0.07,0/18
GFDLNTYGIS,VIYSDGRRTAYQDSVK,GRAAGTFDS,-0.89 nd -0.48 -1.95 -0.73 nd,0/18
GFSLNSYGIS,VIYSDGRRTFYVDSVK,GKLAGTFDT,0.71 nd 1.23 nd nd nd,1/18 (0.82)
GFHLNSYGIS,VIYSDGRRTFYQDSVK,GKVAGTFDS,1.43 1.44 1.70 1.92 0.95 0.75,0/18
GFGLNEYGIS,VIYSDGRRTFYKDSVK,GKAAGTFDT,1.33 1.09 1.95 0.38 1.37 0.53,0/18
GFSLNSYGIS,VIYSDGRRTFYHDRVK,GEAAGTFDS,nd 1.15 nd 1.55 nd 1.36,0/18
GFDLNRYGIS,VIYSDGRRTFYGDSVK,GQEAGTFDS,0.12 1.43 0.46 0.14 0.38 1.00,0/18
GFELNSYGIS,VIYSDGRRTFYIDSVK,GWAAGTFDK,nd 0.62 0.58 nd nd 1.01,0/18
GFDLNSYGIS,VIYSDGLRTFYVDSVK,GRQAGTFDS,0.27 1.46 2.11 0.52 0.94 0.56,0/18
GFSLNSYGIS,VIYSDGRRTAYSDSVK,GKAAGTFDS,-0.42 -0.17 -0.12 -0.40 -0.27 -0.42,1/18 (3.64)
GFDLNSYGIS,VIYSDGRRTFYGDKVK,GWTAGTFDS,0.36 0.86 0.14 0.35 nd 0.20,0/18
QFTLNSYGIS,VIYSDGRRTFYGDSVK,GQEAGTFDT,nd 1.83 nd 2.58 2.36 2.70,0/18
GFALNEYGIS,VIYSDGRRTWYGDSVK,GRTAGTFDS,nd 1.68 nd nd nd 1.76,0/18
GFGLNSYGIS,VIYSDGRRTFYGDAVK,GKTAGTFDS,0.14 1.58 -0.13 0.38 1.30 1.96,0/18
GFQLNEYGIS,VIYSDGRRTFYADSVK,GRAAGTFDT,-0.73 -2.22 -2.42 -2.23 nd nd,1/18 (-1.17)
KFDLNSYGIS,VIYSDGKRTFYIDSVK,GRNAGTFDS,1.86 2.32 1.62 1.39 1.23 2.16,1/18 (1.92)
YFDLNSYGIS,VIYSDGKRTFYGDSVK,GRQAGTFDS,-0.47 -0.33 -0.27 -0.48 -0.37 -0.59,2/18 (2.30)
GFTLNSYGIS,VIYSDGMRTFYGDNVK,GRTAGTFDS,1.16 1.12 1.00 1.16 1.48 1.24,0/18
GFTLNEYGIS,VIYSDGRRTFYGNSVK,GRTAGTFDA,1.47 nd -0.54 0.94 0.07 0.85,1/18 (0.53)
SFELNSYGIS,VIYSDGRRTFYADSVK,GQAAGTFDS,0.98 1.15 0.45 0.81 0.67 0.84,0/18
MFSLNEYGIS,VIYSDGRRTWYGDSVK,GRAAGTFDS,nd nd nd nd nd nd,0/18
QFDLNSYGIS,VIYSDGRRTFYADSVK,GNAAGTFDS,nd nd nd nd nd nd,0/18
GFDLNSYGIS,VIYSDGRRTFYGDEVK,GREAGTFDS,0.21 0.28 0.04 1.09 1.47 0.45,0/18
GFTLNDYGIS,VIYSDGRRTFYGDSVK,GKTAGTFDT,0.49 0.41 0.21 0.00 0.05 0.40,1/18 (2.39)
GFTLNSYGIS,VIYSDGRRTFYADNVK,GNAAGTFDT,nd nd nd nd nd nd,0/18
GFNLNSYGIS,VIYSDGRRTFYADRVK,GKEAGTFDS,-0.59 -0.20 0.15 -0.09 0.59 0.13,0/18
KFNLNSYGIS,VIYSDGRRTFYQDSVK,GEAAGTFDS,nd nd nd nd nd nd,0/18
GFDLNSYGIS,VIYSDGRRTFYADSVK,GWMAGTFDS,0.71 0.07 1.44 0.13 1.77 0.14,0/18
GFDLNWYGIS,VIYSDGRRTFYADSVK,GREAGTFDS,0.68 0.35 0.81 0.44 0.19 0.32,0/18
GFWLNDYGIS,VIYSDGRRTFYADAVK,GRTAGTFDS,nd 0.93 1.51 1.96 0.82 0.77,0/18
GFDLNSYGIS,VIYSDGRRTAYGDNVK,GRNAGTFDS,-0.07 -0.50 0.20 -0.30 -0.12 -0.07,0/18
GFTLDSYGIS,VIYSDGRRTFYIDDVK,GKAAGTFDS,0.28 0.37 0.28 0.45 0.29 0.42,0/18
GFDLNSYGIS,VIYSDGRRTFYIDSVK,GWAAGTFDA,0.71 0.10 0.90 0.90 0.65 0.32,0/18
GFQLNTYGIS,VIYSDGRRTFYVDSVK,GQAAGTFDS,nd nd nd nd nd nd,0/18
GFTLNSYGIS,VIYSDGRRTFYGDGVK,GREAGTFDT,1.19 0.41 0.50 -0.08 0.25 1.12,0/18

Top 4 of the variants detected in all replicates, tightest first:

| CDR-H1 | CDR-H2 | CDR-H3 | replicates, log10 nM | control signals |
|---|---|---|---|---|
| YFDLNSYGIS | VIYSDGKRTFYGDSVK | GRQAGTFDS | -0.47 -0.33 -0.27 -0.48 -0.37 -0.59 | 2/18 (2.30) |
| GFSLNSYGIS | VIYSDGRRTAYSDSVK | GKAAGTFDS | -0.42 -0.17 -0.12 -0.40 -0.27 -0.42 | 1/18 (3.64) |
| GFDLNSYGIS | VIYSDGRRTAYGDNVK | GRNAGTFDS | -0.07 -0.50 0.20 -0.30 -0.12 -0.07 | 0/18 |
| GFNLNSYGIS | VIYSDGRRTFYADRVK | GKEAGTFDS | -0.59 -0.20 0.15 -0.09 0.59 0.13 | 0/18 |

The authors averaged sequences with at least three values out of six and counted those with two or fewer as poor binders. The range of this assay differs from that of the first round, and the authors advise against merging the two. Three control strains display no target. For all heavy chain designs, 1% of the pairings with them gave a signal, with a median of 2.08 and one signal in twenty below 0.84, so weak values seen in few replicates may be background. For each scFv, signals with the empty controls are counted beside the result, with their mean in brackets.